From BindingDB's records for US9988392

Target: Mu-type opioid receptor (Homo sapiens, UniProt P35372)

## COc1ccc2c3c1O[C@H]1C4(OC)CC[C@@]5(C[C@]4(C)COCc4cc6ccccc6s4)[C@@H](C2)N(C)CC[C@]315
  EC50: 74.2 nM
